Source: ChEMBL document CHEMBL5316327, “Design and Synthesis of Orally Active Quinolyl Pyrazinamides as Sigma 2 Receptor Ligands for the Treatment of Pancreatic Cancer” (J Med Chem, 2023)

By UniProt entry, the sequences of proteins in these tests, tags left out. Where a name states a change or a piece, a line headed by the entry shows the natural chain unless it says otherwise.
UniProt P47898, whole entry: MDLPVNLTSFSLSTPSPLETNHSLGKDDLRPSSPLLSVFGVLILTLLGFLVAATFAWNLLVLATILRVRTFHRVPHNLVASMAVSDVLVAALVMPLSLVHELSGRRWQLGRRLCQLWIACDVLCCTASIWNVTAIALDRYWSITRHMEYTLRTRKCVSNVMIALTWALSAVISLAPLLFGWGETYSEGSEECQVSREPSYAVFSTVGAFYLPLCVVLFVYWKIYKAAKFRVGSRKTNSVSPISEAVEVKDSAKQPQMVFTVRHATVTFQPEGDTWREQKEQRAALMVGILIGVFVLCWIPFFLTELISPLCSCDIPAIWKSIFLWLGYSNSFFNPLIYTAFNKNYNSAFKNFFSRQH
UniProt P18089, whole entry: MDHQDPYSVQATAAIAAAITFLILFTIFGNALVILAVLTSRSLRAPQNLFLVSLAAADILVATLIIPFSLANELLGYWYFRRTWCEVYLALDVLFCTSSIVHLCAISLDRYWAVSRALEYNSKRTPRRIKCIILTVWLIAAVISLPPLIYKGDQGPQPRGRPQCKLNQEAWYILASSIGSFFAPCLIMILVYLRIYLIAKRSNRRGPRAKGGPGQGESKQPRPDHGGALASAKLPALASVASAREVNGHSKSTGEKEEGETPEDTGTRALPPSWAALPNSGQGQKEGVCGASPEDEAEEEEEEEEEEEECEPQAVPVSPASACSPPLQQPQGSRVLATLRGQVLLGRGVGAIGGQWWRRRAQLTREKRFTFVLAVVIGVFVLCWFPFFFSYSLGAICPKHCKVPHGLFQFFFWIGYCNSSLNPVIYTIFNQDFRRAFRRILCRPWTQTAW
UniProt P41145: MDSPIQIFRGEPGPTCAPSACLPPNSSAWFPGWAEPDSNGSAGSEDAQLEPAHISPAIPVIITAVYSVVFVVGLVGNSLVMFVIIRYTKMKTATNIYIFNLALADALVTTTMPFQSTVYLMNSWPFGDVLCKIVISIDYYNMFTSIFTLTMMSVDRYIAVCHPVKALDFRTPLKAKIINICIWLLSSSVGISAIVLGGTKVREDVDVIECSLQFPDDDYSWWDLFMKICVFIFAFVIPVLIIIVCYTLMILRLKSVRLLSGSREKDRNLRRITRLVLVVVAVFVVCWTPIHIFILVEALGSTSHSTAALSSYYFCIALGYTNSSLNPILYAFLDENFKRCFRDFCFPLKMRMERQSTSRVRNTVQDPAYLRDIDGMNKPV

Experiments:
[1] = target: 5-hydroxytryptamine receptor 5A (Homo sapiens, UniProt P47898); experiment: Binding affinity to 5-HT5A receptor (unknown origin) assessed as inhibition constant
[2] = target: Alpha-2B adrenergic receptor (Homo sapiens, UniProt P18089); experiment: Binding affinity to alpha2B receptor (unknown origin) assessed as inhibition constant
[3] = target: Kappa-type opioid receptor (Homo sapiens, UniProt P41145); experiment: Binding affinity to KOR receptor (unknown origin) assessed as inhibition constant

`CCN(CC)CCCC(C)Nc1cnc(C(=O)Nc2ccc(Cl)c3cccnc23)cn1` (stereo not drawn) showed a Ki [1] of 1.18 µM, a Ki [2] of 1.13 µM and a Ki [3] of 1.11 µM.
